Assay [1] in a line: in vitro study comparing the solubility of gallstones in glycerol mono-octanoate and sodium cholate (matched stones, Example 1). Further details: species or system human (patients).
Assay [2] can be described thus: test comparing the solubility of gallstones in glycerol mono-octanoate and 200 mM sodium cholate (Example 2). Further details: species or system human (patient). Conditions: six days; sodium cholate 200 mM, mono-octanoate solution as in Example 1.

Consider `CCCCCCCC(=O)OCC(O)CO` (stereo not drawn) [glycerol mono-octanoate], for which the “average amount of stone dissolved by mono-octanoate relative to sodium cholate” value in assay [1] (11.7 g per 100 ml mono-octanoate vs 150 mM sodium cholate, 37° C., 72 hours) was 2.5 times. Besides, the “performance in dissolving the stone versus sodium cholate solution” value in assay [1] (each pair of stones, 15 patients) is listed as “superior”. In addition, the “mean ratio of amounts dissolved (mono-octanoate / sodium cholate), first day” value in assay [1] (first day, 37° C., 11.7 g per 100 ml vs 150 mM sodium cholate) stood at 2.2. Further, the “mean ratio of amounts dissolved (mono-octanoate / sodium cholate), second day” value in assay [1] (second day, 37° C., 11.7 g per 100 ml vs 150 mM sodium cholate) is on record as 2.9. In addition, in assay [1] (third day, 37° C., 11.7 g per 100 ml vs 150 mM sodium cholate), the “mean ratio of amounts dissolved (mono-octanoate / sodium cholate), third day” value came to 3.0. Besides, the “change in size of stones” value in assay [2] is “progressively decreased in size”.

The record behind these values is patent US4205086A, “Method for the treatment of gallstones” (priority 1977, dated 1980).
